Assay results: patent publication US20210284742A1, “METHODS OF TREATING OR PREVENTING MUCORMYCOSIS” (University of Maryland, Baltimore, priority 2018, published 2021)

What was measured:
R. delemar = test: Growth / germination of R. delemar in the absence of host cells; format: cell-based
[1] = tested on: A549 alveolar epithelial cells infected with R. delemar spores; test: Measurement of host cell endocytosis of R. delemar by A549 cells (Uvitex differential fluorescence); format: cell-based, human; conditions: for endocytosis following antibody pre-treatment: A549 cells, R. delemar, antibodies to extracellular domain of EGFR or ErbB2
Experimental: Measurement of host cell endocytosis. 12-mm glass coverslips were seeded with A549 alveolar epithelial cells. Cells were then pre-treated for 1 h with Gefitinib (25 μM) or Cetuximab (25 μg/ml). For controls, host cells will be incubated with DMSO (the solvent used to reconstitute the inhibitor) or 25 μg/ml mouse IgG antibody in parallel. Host cells were then infected with 2×10^5 R. delemar spores. After incubation for 3 h, cells were fixed in 3% paraformaldehyde and stained for 1 h with 1% Uvitex, which specifically binds to chitin in the fungal cell wall. After washing with PBS, coverslips were mounted on a glass slide with a drop of ProLong Gold anti-fade reagent (Molecular Probes) and sealed. The total number of cell-associated organisms (i.e. fungi adhering to the monolayer) per high-powered field were determined by phase-contrast microscopy. The same field will be examined by epifluorescence microscopy, and the number of brightly fluorescent, uninternalized fungi were determined. The number of endocytosed organisms was calculated by subtracting the number of fluorescent fungi from the total number of visible fungi. At least 400 organisms were counted per treatment group in at least 15 different fields per coverslip. Experiments were performed in duplicate or triplicate on at least two separate days.
12-mm glass coverslips in 12 well dishes will be seeded with A549 alveolar epithelial cells. Cells were then pre-treated 1 h with inhibitors. For controls, host cells were incubated with the appropriate amount of diluent used to reconstitute the inhibitor in parallel. Host cells were then infected with 2×10^6 Rdelemar. After incubation for 3 h, cells were fixed in 3% paraformaldehyde and stained for 1 h with 1% Uvitex, which specifically binds to chitin in the fungal cell wall. After washing with PBS, coverslips were mounted on a glass slide with a drop of ProLong Gold anti-fade reagent (Molecular Probes) and sealed. The total number of cell-associated organisms (i.e., fungi adhering to the monolayer) per high-powered field was determined by phase-contrast microscopy. The same exact field was examined by epifluorescence microscopy, and the number of brightly fluorescent, uninternalized fungi will be determined. The number of endocytosed organisms is calculated by subtracting the number of fluorescent organisms from the total number of visible organisms. At least 400 organisms were counted in at least 15 different fields per coverslip. Experiments were performed in duplicate on separate days. Data will be expressed as median f interquartile range.

[2] = tested on: A549 cells infected with R. delemar; test: R. delemar-induced A549 cell damage (Pierce LDH assay); format: cell-based, human; conditions: for damage following antibody pre-treatment: A549 cells, R. delemar, antibodies to extracellular domain of EGFR or ErbB2
Experimental: Measurement of R. delemar-induced host cell damage. R. delemar-induced A549 cell damage was quantified using the Pierce LDH Assay with slight modifications to the manufacturer's protocol. Briefly, A549 cells were grown in 96-well tissue culture plates for 18-24 hours. […] For controls, host cells will be incubated with DMSO (the solvent used to reconstitute the inhibitor) or 25 μg/ml of mouse IgG antibody in parallel. After 24 hours of incubation at 37° C., 50 μl of the cell culture supernatant was collected from uninfected, infected, and fungi-only control wells and transferred to a 96 well plate to assay for LDH activity. Lysis buffer was added to all infected wells and incubated for 45 min at 37° C. After lysis, 50 μl of cell culture supernatant was transferred to a 96 well plate and used for the LDH Assay Kit per protocol. LDH release was calculated as follows: % Cytotoxicity=[Experimental release−Fungal Cells Spontaneous Control−Host Cells Spontaneous Control]/[Host Cell Maximum Control−Fungal Cells Maximum Control−Host Cells Spontaneous Control]×100. LDH is a cytosolic enzyme but will be released into the cell culture medium upon cell membrane damage. The amount of extracellular LDH is proportional to the amount of cell damage.
R. delemar-induced A549 cell damage was quantified using the Pierce LDH assay, with slight modifications to the manufacturer's protocol. Briefly, A549 cells were grown in 96-well tissue culture plates for 18 to 24 h. Cells were then pretreated for 1 h with inhibitor and infected with 1×10^6-2×10^6 germlings suspended in 150 μl F-12K plus 10% FBS. For controls, host cells were incubated with the appropriate amount of diluent used to reconstitute the in parallel. After 24 h of incubation at 37° C., 50 μl of the cell culture supernatant was collected from uninfected, infected, and fungus-only control wells and transferred to a 96-well plate to assay for LDH activity. Lysis buffer was added to all infected wells, and the mixture was incubated for 45 min at 37° C. After lysis, 50 μl of cell culture supernatant was transferred to a 96-well plate and used for the LDH assay kit per the protocol. LDH release was calculated as follows: % cytotoxicity=[(experimental release−fungal cell spontaneous control−host cell spontaneous control)/(host cell maximum control−fungal cell maximum control−host cell spontaneous control)]×100. LDH is a cytosolic enzyme but will be released into the cell culture medium upon cell membrane damage. The amount of extracellular LDH is proportional to the amount of cell damage.

Rhizopus = Rhizopus infection in vitro (FIG. 24); format: cell-based
[3] = spore preparations pre-treated with drug prior to the infection

Substance	R. delemar mycelial growth (R. delemar)	endocytosis of R. delemar spores ([1]; A549 cells pretreated 1 h with 25 μM Gefitinib or 25 μg/ml Cetuximab, 3 h infection, vs vehicle or IgG1 control antibody)	endocytosis following antibody pre-treatment [1]	endocytosis after pre-treatment of R. delemar spore preparations [1, 3]	R. delemar-induced damage of A549 cells (LDH assay) ([2]; A549 cells pretreated 1 h with 25 μM Gefitinib or 25 μg/ml Cetuximab, 24 h infection, vs vehicle or IgG1 control antibody)	damage following antibody pre-treatment [2]	host cell damage after pre-treatment of R. delemar spore preparations [2, 3]	Rhizopus infection in vitro (Rhizopus)
Cetuximab	no effect	significantly reduced; also recorded: did not completely block	significant reduction	did not reduce	significantly reduced	significant reduction	did not reduce	
Trastuzumab			significant reduction			significant reduction		inhibits

“Also recorded” adds a separate entry of the source.
